Data as given in patent EP4768477A1 (Yichang Humanwell Pharmaceutical Co., Ltd., priority 2024, dated 2025).

Sequences of proteins named here, by UniProt entry; tags and fusion partners are left off. A change or cut given only in a name is not applied to a line headed by its entry.
UniProt P41146: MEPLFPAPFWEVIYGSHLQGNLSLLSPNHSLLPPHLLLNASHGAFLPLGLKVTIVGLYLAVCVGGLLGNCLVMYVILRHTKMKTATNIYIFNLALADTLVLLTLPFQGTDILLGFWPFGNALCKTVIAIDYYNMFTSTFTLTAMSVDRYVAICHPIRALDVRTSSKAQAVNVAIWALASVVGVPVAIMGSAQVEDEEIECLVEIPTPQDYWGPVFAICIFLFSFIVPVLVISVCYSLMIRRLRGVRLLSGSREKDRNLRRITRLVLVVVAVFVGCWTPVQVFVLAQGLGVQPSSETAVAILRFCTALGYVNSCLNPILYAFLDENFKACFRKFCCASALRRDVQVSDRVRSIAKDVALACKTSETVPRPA
UniProt P41145: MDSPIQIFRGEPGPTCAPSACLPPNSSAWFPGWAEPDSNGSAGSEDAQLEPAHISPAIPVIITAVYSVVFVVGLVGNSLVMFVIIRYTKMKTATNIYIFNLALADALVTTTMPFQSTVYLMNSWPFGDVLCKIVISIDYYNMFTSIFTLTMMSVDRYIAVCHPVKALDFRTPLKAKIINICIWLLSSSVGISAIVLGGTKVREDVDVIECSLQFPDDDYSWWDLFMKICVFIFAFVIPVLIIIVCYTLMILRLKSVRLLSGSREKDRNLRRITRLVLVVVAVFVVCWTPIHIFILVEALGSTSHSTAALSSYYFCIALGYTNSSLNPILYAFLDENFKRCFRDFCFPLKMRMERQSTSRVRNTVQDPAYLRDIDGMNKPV

Columns and labels:
hNOPr (ORL-1 receptor) = hNOPr (ORL-1 receptor) (Homo sapiens, UniProt P41146); test: Agonistic function, cAMP method, 293-NOPr cells; details: for hNOPr (ORL-1 receptor) Emax (%): forskolin; for EC50: read-out: hNOPr (ORL-1 receptor) EC50, forskolin
hKOR = hKOR (Homo sapiens, UniProt P41145); test: Agonistic function, cAMP method, 293-KOR cells; details: for hKOR Emax (%): forskolin; for EC50: read-out: hKOR EC50, forskolin
[1] = system: formalin-induced inflammatory pain model; test: Pharmacodynamic test in formalin-induced inflammatory pain model; format: in vivo; details: male SD rats, 0-60 minutes after formalin, mean ± standard deviation, n=6

Structure (SMILES)	hNOPr (ORL-1 receptor) Emax (%) (hNOPr (ORL-1 receptor))	EC50 (hNOPr (ORL-1 receptor))	hKOR Emax (%) (hKOR)	EC50 (hKOR)	MPE% ([1]; 1 mg/kg s.c)	MPE% ([1]; 3 mg/kg s.c)
CNC(=O)Cn1c(=O)n(C2CCN(C3CCC4(CC3)CC4)CC2)c2cc(F)c(F)cc21	100.00%	7.35 nM	56.76%	5360 nM	–	–
CS(=O)(=O)Cn1c(=O)n(C2CCN(C3CCC4(CCC4)CC3)CC2)c2cc(F)c(F)cc21	100.3%	3.5 nM	49.84%	478 nM	55.8±14.8 %	–
CC1(C)CCC(N2CCC(n3c(=O)n(CS(C)(=N)=O)c4cc(F)c(F)cc43)CC2)CC1 (centres unmarked)	99.5%	48.6 nM	84.67%	491 nM	–	–
CC(C)C1CCC(N2CCC(N3C(=O)N(CCNS(C)(=O)=O)Cc4cc(F)c(F)cc43)CC2)CC1 (centres unmarked)	–	6.47 nM	–	561 nM	–	–
CNC(=O)Cn1c(=O)n(C2CCN(C3CCC(C)(C)CC3)CC2)c2cc(F)c(F)cc21	104.10%	3.12 nM	57.26%	811 nM	–	–
CNC(=O)Cn1c(=O)n(C2CCN(C3CCC(C)(C)CC3)CC2)c2cc(Cl)c(F)cc21	84.3%	19.6 nM	56.4%	2260 nM	–	–
CCNC(=O)Cn1c(=O)n(C2CCN(C3CCC(C)(C)CC3)CC2)c2cc(F)c(F)cc21	104.70%	21.7 nM	68.93%	474 nM	–	–
CS(=O)(=O)Cn1c(=O)n(C2CCN(C3CCC4(CC3)CC4)CC2)c2cc(F)c(F)cc21	96.53%	9.2 nM	82.79%	1150 nM	64.5±15.3 %	–
CNC(=O)Cn1c(=O)n(C2CCN([C@H]3CC[C@@H](C(C)C)CC3)CC2)c2cc(F)c(F)cc21 (relative stereo)	103.10%	0.1 nM	103.00%	1720 nM	100.5±5.7 %	–
CC1(C)CCC(N2CCC(n3c(=O)n(CS(C)(=O)=O)c4cc(F)c(F)cc43)CC2)CC1	99.74%	10.7 nM	70.20%	715 nM	–	78.2±21.8 %
CC(C)[C@H]1CC[C@@H](N2CCC(n3c(=O)n(CC(=O)N(C)C)c4cc(F)c(F)cc43)CC2)CC1 (relative stereo)	92.25%	8.77 nM	55.37%	2250 nM	–	79.0±4.6 %
CC1(C)CCC(N2CCC(n3c(=O)n(CCS(N)(=O)=O)c4cc(F)c(F)cc43)CC2)CC1	98.3%	24.5 nM	73.3%	2060 nM	–	–
CCS(=O)(=O)NCCN1Cc2cc(F)c(F)cc2N(C2CCN([C@H]3CC[C@@H](C(C)C)CC3)CC2)C1=O (relative stereo)	–	5.85 nM	–	601 nM	–	–
